Results published in PubChem BioAssay (NCATS).
The entries are a selection whose mix differs from that of the whole data set. Results filed as inconclusive are left out. Active and inactive are the calls of the source. Unless noted, the call rests on the fitted dose curve; in most records, active means well fitted curve in the direction sought with a large enough effect; inconclusive means small, poorly fitted or top-dose-only effect, or another doubt; inactive means no such curve, though single readings can be large; an effect the other way counts as inactive or inconclusive.

Protein sequences, listed by entry. Tags and fused reporters are not part of them.
UniProt P51449, whole entry: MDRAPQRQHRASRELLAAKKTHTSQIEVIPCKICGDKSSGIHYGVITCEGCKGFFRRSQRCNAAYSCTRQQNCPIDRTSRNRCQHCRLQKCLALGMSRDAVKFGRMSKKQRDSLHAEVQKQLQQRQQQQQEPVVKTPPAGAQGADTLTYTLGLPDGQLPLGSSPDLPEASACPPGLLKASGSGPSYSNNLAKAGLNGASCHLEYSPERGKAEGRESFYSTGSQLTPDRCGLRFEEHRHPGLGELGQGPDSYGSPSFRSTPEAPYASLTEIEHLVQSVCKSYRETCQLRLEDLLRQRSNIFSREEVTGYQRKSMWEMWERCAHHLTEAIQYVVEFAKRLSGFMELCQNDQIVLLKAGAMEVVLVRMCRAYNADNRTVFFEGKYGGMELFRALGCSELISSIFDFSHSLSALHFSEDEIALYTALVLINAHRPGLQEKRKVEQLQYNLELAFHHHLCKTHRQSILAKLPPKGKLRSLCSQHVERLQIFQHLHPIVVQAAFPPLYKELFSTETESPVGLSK

Key:
[1] = Primary qHTS for inhibitors of nuclear receptor binding SET domain protein 2 (NSD2) in an isogenic RCH-ACV NSD2 p.E1099K mutant (9B) (AID 1645876); conditions: RCH-ACV NSD2 E1099K (9B) viability, CellTiter-Glo, 72 h; further: nearly all actives have a fitted effect of over 70% in size
[2] = Primary qHTS for inhibitors of nuclear receptor binding SET domain protein 2 (NSD2) in an RCH-ACV wild type WT cells (2C) (AID 1645877); conditions: RCH-ACV (leukaemia line) NSD2 WT (2C) viability, CellTiter-Glo, 72 h; further: nearly all actives have a fitted effect of over 70% in size
[3] = Cell Viability - N2a (AID 540); conditions: N2a mouse neuroblastoma cell viability; further: nearly all actives have a fitted effect of over 45% in size
Summary of the method: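 Mouse neuroblastoma N2a cells, 1500/well, exposed to compounds 40 h at 37 °C in complete medium. Viability measured as cellular ATP by CellTiter-Glo luminescence; AC50 from Hill fits of concentration-response.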

[4] = MultiTox-Fluor Cytotoxicity Assay - LYMP1-002 - Dead Cells (AID 960); conditions: LYMP1-002 lymphoblastoid cells, dead-cell protease fluorescence; further: nearly all actives have a fitted effect of over 60% in size
Summary of the method: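 Human lymphoblastoid LYMP1-002 cells, 2500/well, treated 16 h at 37 C; dead-cell protease cleavage of bis-AAF-R110 read by fluorescence (485/520); normalized to DMSO and 15 uM tetraoctylammonium bromide; AC50 from Hill fit.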

[5] = Cell Viability - LYMP1-003 - Assay at 40 hr (AID 964); conditions: LYMP1-003 lymphoblastoid viability; further: nearly all actives have a fitted effect of over 60% in size
Summary of the method: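 LYMP1-003 human lymphoblastoid cells, 2500/well, preincubated 5 h at 37 C, then treated with compound for 40 h at 37 C. Intracellular ATP read by CellTiter-Glo luminescence after 30 min at room temperature; AC50 from Hill-equation fits.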

[6] = Cell Viability - LYMP2-011 (AID 969); conditions: LYMP2-011 lymphoblastoid cells viability; further: nearly all actives have a fitted effect of over 60% in size
Summary of the method: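 2500 cells/well in complete medium, compound-treated 24 h at 37 C. Viability read as intracellular ATP by CellTiter-Glo luminescence after 30 min at room temperature. AC50 from Hill fits of qHTS concentration-response data.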

[7] = Cell Viability - LYMP2-013 (AID 970); conditions: LYMP2-013 lymphoblastoid cells viability; further: nearly all actives have a fitted effect of over 55% in size
Summary of the method: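 Human lymphoblastoid LYMP2-013 cells, 2500/well, treated 24 h at 37 C in complete medium; viability as intracellular ATP by CellTiter-Glo luminescence after 30 min. AC50 from Hill fits of qHTS concentration-response.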

[8] = Cell Viability - LYMP2-017 (AID 972); conditions: LYMP2-017 lymphoblastoid cell viability; further: nearly all actives have a fitted effect of over 55% in size
Summary of the method: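 LYMP2-017 human lymphoblastoid cells (2500/well) settled 5 hr at 37 C, then exposed to compound 24 hr at 37 C in complete medium. Viability taken as intracellular ATP by CellTiter-Glo luminescence after 30 min at RT; AC50 from Hill fits.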

[9] = Cell Viability - LYMP2-019 (AID 973); conditions: LYMP2-019 lymphoblastoid cell line viability; further: nearly all actives have a fitted effect of over 55% in size
Summary of the method: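 Human lymphoblastoid LYMP2-019 cells (2500/well) preincubated 5 h at 37 C, then treated 24 h at 37 C in complete medium. Viability by CellTiter-Glo ATP luminescence after 30 min at room temperature; AC50 from Hill fits.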

[10] = Cell Viability - LYMP2-023 (AID 975); conditions: LYMP2-023 lymphoblastoid cell viability; further: nearly all actives have a fitted effect of over 55% in size
Summary of the method: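 LYMP2-023 human lymphoblastoid cells, 2500/well, preincubated 5 hr at 37 C, then compound-treated 24 hr at 37 C in complete medium. CellTiter-Glo luminescence (ATP) after 30 min at room temperature; AC50 from Hill-equation fits; tetraoctylammonium bromide positive control.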

[11] = Cell Viability - LYMP2-025 (AID 976); conditions: LYMP2-025 lymphoblastoid cell viability
Summary of the method: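 Human lymphoblastoid LYMP2-025 cells, 2500/well, exposed 24 h at 37 C in complete medium in 1536-well qHTS. Viability as cellular ATP by CellTiter-Glo luminescence; AC50 from Hill fits of concentration-response data.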

[12] = Cell Viability - LYMP2-002 (AID 977); conditions: LYMP2-002 lymphoblastoid cell viability, qHTS;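 further: compound exposure lasted 24 h at 37 °C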
Summary of the method: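 Human lymphoblastoid LYMP2-002 cells, 2500 per well, exposed to compounds for 24 h at 37 C in complete medium; viability read as intracellular ATP by CellTiter-Glo luminescence, AC50 from Hill fits.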

[13] = Cell Viability - LYMP2-026 (AID 989); conditions: LYMP2-026 lymphoblastoid cell viability, qHTS; further: nearly all actives have a fitted effect of over 50% in size
Summary of the method: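 Human lymphoblastoid LYMP2-026 cells, 2500/well, exposed to compound 24 h at 37 C in complete medium. Viability as intracellular ATP by CellTiter-Glo luminescence; AC50 from Hill fits of qHTS concentration-response.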

[14] = Cell Viability - LYMP1-002 - Assay at 24 hr (AID 993); conditions: LYMP1-002 lymphoblastoid cells viability
Summary of the method: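 Human lymphoblastoid LYMP1-002 cells (2500/well) treated 24 h at 37 °C; viability as intracellular ATP by CellTiter-Glo luminescence. Tetraoctylammonium bromide as positive control; AC50 from Hill-equation fits of qHTS concentration-response.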

[15] = qHTS assay for small molecule activators of the p53 signaling pathway (AID 651743; active means well fitted activation curve with a large enough effect in the signal ratio, not every such curve was filed as active; the % refers to the signal ratio); conditions: HCT-116 p53RE-bla, beta-lactamase FRET ratio, 16 h
Summary of the method: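 p53RE-bla HCT-116 cells carrying a beta-lactamase reporter under p53 response elements were exposed to compounds for 16 hours at 37 C. Reporter activity read as fluorescence after 2 hours at room temperature with LiveBLAzer B/G FRET substrate.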

[16] = biological target: Nuclear receptor ROR-gamma (Homo sapiens) (UniProt P51449); experiment: qHTS assay for small molecule antagonists of the retinoid-related orphan receptor gamma (ROR-gamma) signaling pathway (AID 651802); conditions: ROR-gamma antagonist cell reporter assay; further: nearly all actives have a fitted effect of over 60% in size
[17] = qHTS assay for small molecule antagonists of the retinoid-related orphan receptor gamma (ROR-gamma) signaling pathway - cell viability counter screen (AID 720652; active means well fitted curve in the direction sought with a large enough effect in the repeat runs; an effect the other way counts as inactive or inconclusive;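 further: compound exposure lasted 16 hr before ATP read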); conditions: RORgamma reporter cell line viability counter screen
[18] = qHTS of pediatric cancer cell lines to identify multiple opportunities for drug repurposing: Primary screen for A673 cells (AID 1347092); conditions: A673 Ewing sarcoma viability, CellTiter-Glo ATP luminescence, 48 h; further: nearly all actives have a fitted effect of over 45% in size
Summary of the method: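 48 h compound exposure, A673, 500-1,000 cells/well, 37 degrees C/5% CO2. MIPE: 11-point, 0.78 nM-46 µM; NPC: 8-point, 0.59 nM-46 µM (final). Readout CellTiter-Glo luminescence after 15 min RT.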

[19] = qHTS of pediatric cancer cell lines to identify multiple opportunities for drug repurposing: Primary screen for SK-N-MC cells (AID 1347093); conditions: SK-N-MC viability, CellTiter-Glo luminescence, 48 h
[20] = qHTS of pediatric cancer cell lines to identify multiple opportunities for drug repurposing: Confirmatory screen for NB1643 cells (AID 1347109); conditions: NB1643 neuroblastoma cell viability; further: nearly all actives have a fitted effect of over 45% in size
Summary of the method: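 Viability after 48 h compound treatment at 37C, 500-1,000 cells/well, read as ATP luminescence with CellTiter-Glo. Primary screens used 11-point (MIPE, 0.78 nM-46 µM) or 8-point (NPC, 0.59 nM-46 µM) final concentrations; follow-up screens used 11-point dilutions.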

[21] = qHTS of pediatric cancer cell lines to identify multiple opportunities for drug repurposing: Confirmatory screen for A673 cells (AID 1347110); conditions: A673 Ewing sarcoma cell viability; further: nearly all actives have a fitted effect of over 65% in size
Summary of the method: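 Concentration-response curves came straight from titrations: 11 points (0.78 nM to 46 µM) for MIPE and several concentrations (0.59 nM to 46 µM) for NPC in primary, 11 points in follow-up. Readout: ATP luminescence at 48 h.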

[22] = qHTS of pediatric cancer cell lines to identify multiple opportunities for drug repurposing: Confirmatory screen for DAOY cells (AID 1347114); conditions: DAOY medulloblastoma cells viability, cytotoxicity qHTS; further: nearly all actives have a fitted effect of over 65% in size
Summary of the method: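 Viability measured as metabolically active cells via CellTiter-Glo luminescence following 48 hours of compound exposure, 11-point dilutions in confirmatory testing. 500-1,000 cells/well plated 5 hours before dosing; controls were DMSO and 2.3 µM bortezomib.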

[23] = qHTS of pediatric cancer cell lines to identify multiple opportunities for drug repurposing: Confirmatory screen for TC32 cells (AID 1347118); conditions: TC32 Ewing sarcoma cells viability qHTS; further: nearly all actives have a fitted effect of over 65% in size
Summary of the method: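 Luminescent ATP read-out (CellTiter-Glo) of metabolically active TC32 cells after 48 h exposure. Concentration-response curves came from 11-point (MIPE, 0.78 nM–46 µM) or 8-point (NPC, 0.59 nM–46 µM) primary titrations; follow-up used 11 points.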

[24] = Quantitative High-Throughput drug screen in 47 multiple myeloma cell lines against the NCATS MIPE library collection: EJM_DSMZ cell viability assay (AID 1918926; further: nearly all actives have a fitted effect of over 30% in size); conditions: EJM myeloma cell viability, CellTiter-Glo ATP, 48 h
Summary of the method: (§1)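 Myeloma cell lines, 500 cells per well, exposed to MIPE 4.0 library compounds for 48 h at 37C, 5% CO2. Viability from ATP by CellTiter-Glo luminescence; normalised to DMSO (100%) and media-only (0%) wells.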

[25] = Quantitative High-Throughput drug screen in 47 multiple myeloma cell lines against the NCATS MIPE library collection: Karpas25_ECACC cell viability assay (AID 1918968; further: nearly all actives have a fitted effect of over 35% in size); conditions: Karpas25 myeloma viability, CellTiter-Glo ATP, 48 h
Summary of the method: as §1

[26] = Quantitative High-Throughput drug screen in 47 multiple myeloma cell lines against the NCATS MIPE library collection: KMS20_JCRB cell viability assay (AID 1918973); conditions: CellTiter-Glo ATP, 48 h; further: nearly all actives have a fitted effect of over 45% in size
Summary of the method: as §1

[27] = Quantitative High-Throughput drug screen in 47 multiple myeloma cell lines against the NCATS MIPE library collection: XG6_PLB cell viability assay (AID 1919865); conditions: XG6 myeloma viability, CellTiter-Glo ATP luminescence, 48 h; further: nearly all actives have a fitted effect of over 40% in size
Summary of the method: (§2)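 500 cells/well per myeloma line exposed to pinned MIPE 4.0 compounds for 48 h at 37 °C, 5% CO2. Viability read as ATP by CellTiter-Glo luminescence, normalised to DMSO-only (100%) and media-only (0%) wells.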

[28] = Quantitative High-Throughput drug screen in 47 multiple myeloma cell lines against the NCATS MIPE library collection: XG1_PLB cell viability assay (AID 1919866); conditions: CellTiter-Glo ATP, 48 h; further: nearly all actives have a fitted effect of over 35% in size
Summary of the method: as §2

[29] = Quantitative High-Throughput drug screen in 47 multiple myeloma cell lines against the NCATS MIPE library collection: UTMC2_PLB cell viability assay (AID 1919868); conditions: CellTiter-Glo ATP luminescence, 48 h; further: nearly all actives have a fitted effect of over 55% in size
Summary of the method: as §2

[30] = Quantitative High-Throughput drug screen in 47 multiple myeloma cell lines against the NCATS MIPE library collection: PCM6_Riken cell viability assay (AID 1919870); conditions: CellTiter-Glo ATP, 48 h; further: nearly all actives have a fitted effect of over 30% in size
Summary of the method: as §2

CP201 = experiment: qHTS profiling for inhibitors of Plasmodium falciparum proliferation (AID 504749); further: nearly all actives have a fitted effect of over 60% in size;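 on activity, negative = inhibition: 0% = DMSO vehicle and full inhibition = artemisinin control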; conditions: P. falciparum in erythrocytes, SYBR Green DNA, 72 h; at 28.7 µM (top of the series)
Summary of the method: (§3)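 P. falciparum-infected erythrocytes (0.3% parasitemia, 2.5% hematocrit) incubated with compound 72 h at 37 C, 5% CO2. Parasite DNA detected by SYBR Green after lysis, overnight at room temperature; normalised to 0.29 uM artemisinin and DMSO.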

ICS = experiment: as above; conditions: P. falciparum in erythrocytes, SYBR Green DNA, 72 h
Summary of the method: as §3

P93_24 = experiment: as above; conditions: P. falciparum in erythrocytes, SYBR Green DNA, 72 h; at 28.7 µM (top of the series)
Summary of the method: as §3

TAB113 = experiment: as above; conditions: P. falciparum in erythrocytes, SYBR Green DNA, 72 h; at 28.7 µM (top of the series)
Summary of the method: as §3

[31] = Drug repurposing screens with cells derived from glioblastoma tumor samples (AID 1345199); conditions: GBM patient neurospheres viability, ATP luminescence, 48 h; tumour line A; further: nearly all actives have a fitted effect of over 40% in size
Summary of the method: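 Four patient lines of CD133+ GBM neurospheres were screened at several concentrations; hits were retested in those lines plus three slower-growing GBM lines, using 48-hour treatment and ATP-based viability.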
Potency means the concentration at half of the fitted maximal effect.

Question: Which results are given for `CCC(=O)N(c1ccccc1)C1(COC)CCN(CCc2cccs2)CC1`?
Answer: Potency [1]: active: 24.3 µM; Potency [2]: active: 27.3 µM

Question: Which results are given for `CN(CCCl)CCCl`?
Answer: Potency [3]: active: 15.8 µM; Potency [4]: active: 25.1 µM; Potency [5]: active: 25.1 µM; Potency [6]: active: 12.6 µM; Potency [7]: active: 15.8 µM; Potency [8]: active: 12.6 µM; Potency [9]: active: 15.8 µM; Potency [10]: active: 15.8 µM; Potency [11]: active: 15.8 µM; Potency [12]: active: 12.6 µM; Potency [13]: active: 12.6 µM; Potency [14]: active: 50.1 µM; Potency [15]: active: 12.6 µM; Potency [16]: active: 26.6 µM; Potency [17]: active: 11.9 µM; Potency [18]: active: 21.1 µM; Potency [19]: active: 26.6 µM; Potency [20]: active: 20.8 µM; Potency [21]: active: 11.7 µM; Potency [22]: active: 13.1 µM; Potency [23]: active: 11.7 µM; Potency [24]: active: 18.7 µM; Potency [25]: active: 18.7 µM; Potency [26]: active: 10.5 µM; Potency [27]: active: 10.5 µM; Potency [28]: active: 18.7 µM; Potency [29]: active: 5.26 µM; Potency [30]: active: 14.8 µM; activity, negative = inhibition (CP201): inactive: 11.3%; Potency (ICS): active: 11.2 µM; activity, negative = inhibition (P93_24): inactive: 2.59%; activity, negative = inhibition (TAB113): inactive: -26.4%; Potency [31]: active: 25.1 µM
